The results in this text go back to patent US20090162336A1.

The experiment has as its target taxol-stabilized microtubules made from PC tubulin. Kind of experiment: microtubule pelleting assay, htau40 (FIG. 36).

Consider “htau40 phosphorylated with the brain extract kinase activity (from UniProt P10636 1-441)”, for which the Dn (difference in stoichiometry upon phosphorylation) (tau/tubulin dimer) is 0.31.

For “htau40 phosphorylated with MAP kinase (from UniProt P10636 1-441)”, the Dn (difference in stoichiometry upon phosphorylation) (tau/tubulin dimer) worked out at 0.09.
